{"source": "paper PMC9600172", "about": "“N-Succinyltransferase Encoded by a Cryptic Siderophore Biosynthesis Gene Cluster in Streptomyces Modifies Structurally Distinct Antibiotics” (mBio, 2022)", "system": "CC1(C)S[C@@H]2[C@H](NC(=O)[C@H](N)c3ccccc3)C(=O)N2[C@H]1C(=O)O", "assay": "purified protein", "conditions": "25 mM succinyl-CoA, 50 mM Tris-HCl, 30 °C, 2 mg/mL CsbC, ampicillin 0-8.1 mM, pH 8 in general assay"}
{"substance": "CsbC (Streptomyces sp. YIM 121038)", "values": [{"measurement": "Km", "result": 470, "unit": "µM"}]}
